# Source: patent publication US8497265B2, “Heteroaryloxyheterocyclyl compounds as PDE10 inhibitors” (Amgen Inc., priority 2010, dated 2013)
# Chains of the proteins cited; added tags and fusions are not shown.
# UniProt Q8CA95, whole entry: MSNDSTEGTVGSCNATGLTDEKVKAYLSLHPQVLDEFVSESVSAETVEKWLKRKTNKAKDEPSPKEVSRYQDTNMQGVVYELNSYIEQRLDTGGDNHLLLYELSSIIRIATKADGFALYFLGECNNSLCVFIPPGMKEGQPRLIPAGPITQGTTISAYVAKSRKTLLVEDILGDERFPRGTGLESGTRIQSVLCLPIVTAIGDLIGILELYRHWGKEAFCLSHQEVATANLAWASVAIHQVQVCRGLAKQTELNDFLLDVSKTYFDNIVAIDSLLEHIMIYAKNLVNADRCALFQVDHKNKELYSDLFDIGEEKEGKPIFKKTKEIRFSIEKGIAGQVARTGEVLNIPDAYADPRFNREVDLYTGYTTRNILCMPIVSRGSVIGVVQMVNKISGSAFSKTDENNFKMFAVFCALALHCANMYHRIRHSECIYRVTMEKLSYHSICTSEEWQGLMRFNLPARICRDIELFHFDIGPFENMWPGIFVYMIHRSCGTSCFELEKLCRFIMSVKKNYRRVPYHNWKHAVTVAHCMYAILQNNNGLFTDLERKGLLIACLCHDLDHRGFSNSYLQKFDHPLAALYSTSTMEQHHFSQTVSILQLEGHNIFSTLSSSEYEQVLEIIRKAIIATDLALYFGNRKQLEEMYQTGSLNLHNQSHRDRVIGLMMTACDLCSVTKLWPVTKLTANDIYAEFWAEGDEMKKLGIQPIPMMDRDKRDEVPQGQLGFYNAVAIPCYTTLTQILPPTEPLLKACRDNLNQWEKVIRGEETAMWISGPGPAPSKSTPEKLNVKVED
# Target: PDE10 (Mus musculus, UniProt Q8CA95)
# Assay: PDE10 enzyme inhibition (IMAP TR-FRET assay)
# Assay type: biochemical
# Conditions: Table 8A
structure (smiles),measurement,value
COc1ncccc1-c1nccnc1OC1CN(c2ccc3ccccc3n2)C1,IC50,83.7 nM
